Source: patent publication US9326520B2, “Pest repellent comprising geranylacetone” (The University Court of the University of Aberdeen, priority 2006, dated 2016)

Tested on: Aedes aegypti host-seeking female mosquitoes
Test: Y-tube olfactometer: response of mosquitoes to hand of attractive volunteer with and without chemical
Conditions: in vivo
Description: FIG. 5. […] (−1=1×10^−1 g μL^−1; −2=1×10^−2 g μL^−1, etc). Back transformed means+95% confidence intervals (calculated for a binomial distribution) from the logistic scale are shown.
A convenient bioassay was established following work by Geier et al. (1999)^17 using a Y-tube olfactometer in which mosquitoes, Ae. aegypti, could “choose” between volatile skin emanations and air alone, the “choice” being expressed as flight activity or relative attraction. Initially, the source of skin emanations was from individual hands of a series of human volunteers.
These compounds (from Sigma Aldrich) were tested individually at different concentrations in the olfactometer against Ae. aegypti. The upwind flight activity, relative attraction and probing activity (feeding) of the mosquitoes to the hand of an attractive volunteer with and without the chemicals was recorded.

For `CC(=O)CCC=C(C)C` [6-methyl-5-hepten-2-one, 6-Methyl-5-hepten-2-one], the “probing activity (feeding)” value was “significantly reduced”.
